Literature values, collected in patent publication US8420667B2, “Isoquinolinone derivatives as NK3 antagonists” (H. Lundbeck A/S, priority 2008, dated 2013).

Amino acid sequences for entries named in this document (tags omitted).
UniProt P29371, whole entry: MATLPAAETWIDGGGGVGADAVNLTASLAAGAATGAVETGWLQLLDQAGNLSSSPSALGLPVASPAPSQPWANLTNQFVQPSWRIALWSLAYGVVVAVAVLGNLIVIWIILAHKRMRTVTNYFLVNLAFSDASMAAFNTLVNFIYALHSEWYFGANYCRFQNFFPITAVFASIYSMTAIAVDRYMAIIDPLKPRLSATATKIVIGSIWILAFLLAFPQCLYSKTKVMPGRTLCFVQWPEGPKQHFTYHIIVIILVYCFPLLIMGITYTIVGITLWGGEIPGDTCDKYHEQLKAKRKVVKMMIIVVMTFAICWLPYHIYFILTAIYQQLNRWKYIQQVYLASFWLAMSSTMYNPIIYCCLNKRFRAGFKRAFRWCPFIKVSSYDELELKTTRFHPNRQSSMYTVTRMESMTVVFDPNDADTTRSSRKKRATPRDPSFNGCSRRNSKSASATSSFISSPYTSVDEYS

Biological target: NK3 receptor (Homo sapiens, UniProt P29371)
Conditions: clinical trials; delusions, hallucinations and paranoia; cited from earlier work

**Q.** Which “effect versus placebo on positive symptoms of psychosis” value does the source give for `CC(=O)N(C)C1(c2ccccc2)CCN(CCC[C@]2(c3ccc(Cl)c(Cl)c3)CCCN(C(=O)c3ccccc3)C2)CC1` [Osanetant, osanetant] here?
**A.** The value was “superior to placebo”.
